Laboratory results as given in patent US20060153931A1, “Prevention of flap necrosis in plastic surgery” (priority 2001, published 2006).
Only a part of the results on these compounds is given; other tests are left out.

System: free tissue transfer of forearm tissues to the face
Test: Patient with free tissue transfer, vasospasm after reattachment (Example I)
Type: in vivo, human
Conditions: topical application, 50 mM, instead of the ethyl nitrite

sodium nitroprusside
vasodilation and blood flow after vasospasm: same result
